This series can be described thus: 4-week toxicity study with 4-week recovery in mice (incl. TK).

Results on 1 compound are retold here after US10328077B2 (CELGENE CORPORATION, priority 2016, dated 2019).

Entries after “also recorded” stand apart in the source; their conditions may differ.

On to `COc1ccc(-c2c(-c3ccc(C#N)c(F)c3)nc(N3CCC(N)CC3)n(C)c2=O)cc1F` [Compound A, 4-[2-(4-amino-piperidin-1-yl)-5-(3-fluoro-4-methoxy-phenyl)-1-methyl-6-oxo-1,6-dihydro-pyrimidin-4-yl]-2-fluoro-benzonitrile], for which the “animals sacrificed in moribund condition” value (45 mg base/kg/dose QD×5/week, TK subgroup) is given as “Five”. Under “4-week treatment-free period”, the reversibility of findings result is reported as “partial to complete reversibility”. Also, the “Compound A-related adverse findings” value (4 weeks oral, 5, 15, 45 (QD×5/week) or 25 (QOD×3/week) mg base/kg/dose, dose as stated with each finding) was “Rough haircoat at ≥15 mg base/kg/dose; also recorded: Marked decreases in platelet and reticulocyte counts at 45 mg base/kg/dose; also recorded: Minimal to marked fibrosis in the medullary space of the sternum; also recorded: Minimal to moderate increase in periosteal, endosteal, and trabecular lamellar bone (hyperostosis); also recorded: Minimal to moderate myeloid hyperplasia in the bone marrow of the sternum at ≥15 mg base/kg/dose; also recorded: Moderate fibrosis in the femoral bone marrow at 45 mg base/kg/dose; also recorded: Minimal to marked depletion of marginal zone lymphocytes in the spleen”.
